Experimental data taken from patent US9624237B2 (priority 2015, dated 2017).

Tested on: LPS induced NO production in RAW264.7 macrophages
Conditions: 1 uM pretreatment 1 h, 100 ng/mL LPS 24 h; unstimulated 3.47±0.58, LPS alone 31.74±0.31 uM

C[C@@H]1C[C@H]2[C@@H]3CCC4=CC(=O)C=C[C@]4(C)[C@@]3(F)[C@@H](O)C[C@]2(C)[C@@]1(O)C(=O)CO [DEX, dexamethasone]
nitrite level in the supernatant of LPS stimulated RAW264.7 cells: 16.63 ± 0.20 µM
